The values that follow are results of earlier work, collected in US20110245095A1, “FAST ASSIGNMENT OF ADEQUATE CHEMOTHERAPY WITH LATINUM BASED DRUGS FOR CANCER PATIENTS BASED ON THE IDENTIFICATION OF CONSTITUTIONAL BRCAL MUTATIONS” (priority 2008, published 2011).

The series relates to breast cancer. The following applies: HER2 positive patients, compared with anthracycline and taxane combinations; cited from earlier work.

As to “trastuzumab: trastuzumab (Herceptin) for HER2 positive patients”, the pCR rates result was “much higher”.
